Test results reported in patent publication US5707855A (priority 1996, dated 1998).

Columns and labels:
[1] = system: E. coli; assay type: cell-based; conditions: strain UB1005, Parent of DC2
Experimental: (§1) The minimum inhibitory concentrations of (MIC) of CEME, CEMA and melittin were determined for a number of different bacteria (Table 2). Briefly, cells were grown overnight at 37° C. in LB-S (Luria broth without any salt supplement) and diluted one in 10,000 in the same medium to give concentrations of about 10^4 to 10^5 CFU/ml. The broth dilutions were set up in a 96 well microtiter plate by putting 200 μl of LB-S containing the initial concentration of antibiotic or compound in column 1 and 100 μl of the same medium in columns 2-12. The compounds were diluted by taking 100 μl of broth from column 1 and mixing it with column 2, resulting in a one in two dilution. This was continued to column 10. Finally, 10 μl of bacteria were pipetted into columns 1-11, and the plates incubated overnight at 37° C. The next day the plates were scored for growth in the wells, and the MIC determined.

[2] = system: E. cloacae; assay type: cell-based; conditions: strain 218S, Parent of 218R1
Experimental: as §1

## CC[C@H](C)[C@H](NC(=O)CN)C(=O)NCC(=O)N[C@@H](C)C(=O)N[C@H](C(=O)N[C@@H](CC(C)C)C(=O)N[C@@H](CCCCN)C(=O)N[C@H](C(=O)N[C@@H](CC(C)C)C(=O)N[C@H](C(=O)N[C@H](C(=O)NCC(=O)N[C@@H](CC(C)C)C(=O)N1CCC[C@H]1C(=O)N[C@@H](C)C(=O)N[C@@H](CC(C)C)C(=O)N[C@H](C(=O)N[C@@H](CO)C(=O)N[C@@H](Cc1c[nH]c2ccccc12)C(=O)N[C@H](C(=O)N[C@@H](CCCCN)C(=O)N[C@@H](CCCNC(=N)N)C(=O)N[C@@H](CCCCN)C(=O)N[C@@H](CCCNC(=N)N)C(=O)N[C@@H](CCC(N)=O)C(=O)N[C@@H](CCC(N)=O)C(N)=O)[C@@H](C)CC)[C@@H](C)CC)[C@@H](C)O)[C@@H](C)O)C(C)C)C(C)C [Melittin, melittin]
[1]
  MIC: 8 µg/mL (≈ 2.81 µM)
[2]
  MIC: 8 µg/mL (≈ 2.81 µM)

≈ marks a conversion by molar mass, not a printed value.
